{
  "sequences": {"note": "The chains behind the UniProt entries cited, without tags or fusion partners. Where a name states a change or a piece, a line headed by the entry shows the natural chain unless it says otherwise.", "UniProt P55055, whole entry": "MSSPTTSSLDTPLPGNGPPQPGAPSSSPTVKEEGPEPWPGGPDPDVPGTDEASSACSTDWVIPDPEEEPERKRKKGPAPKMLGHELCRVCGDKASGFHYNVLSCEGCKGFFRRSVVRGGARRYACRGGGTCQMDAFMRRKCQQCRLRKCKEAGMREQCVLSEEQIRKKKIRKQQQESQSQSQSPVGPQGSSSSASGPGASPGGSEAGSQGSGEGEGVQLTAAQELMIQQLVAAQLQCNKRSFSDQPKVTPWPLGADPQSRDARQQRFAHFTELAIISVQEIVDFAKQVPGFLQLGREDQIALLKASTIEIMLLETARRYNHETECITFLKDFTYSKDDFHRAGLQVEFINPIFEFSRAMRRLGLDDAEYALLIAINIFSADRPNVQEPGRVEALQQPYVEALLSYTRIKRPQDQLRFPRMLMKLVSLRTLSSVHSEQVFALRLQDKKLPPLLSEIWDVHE", "UniProt Q13133, whole entry": "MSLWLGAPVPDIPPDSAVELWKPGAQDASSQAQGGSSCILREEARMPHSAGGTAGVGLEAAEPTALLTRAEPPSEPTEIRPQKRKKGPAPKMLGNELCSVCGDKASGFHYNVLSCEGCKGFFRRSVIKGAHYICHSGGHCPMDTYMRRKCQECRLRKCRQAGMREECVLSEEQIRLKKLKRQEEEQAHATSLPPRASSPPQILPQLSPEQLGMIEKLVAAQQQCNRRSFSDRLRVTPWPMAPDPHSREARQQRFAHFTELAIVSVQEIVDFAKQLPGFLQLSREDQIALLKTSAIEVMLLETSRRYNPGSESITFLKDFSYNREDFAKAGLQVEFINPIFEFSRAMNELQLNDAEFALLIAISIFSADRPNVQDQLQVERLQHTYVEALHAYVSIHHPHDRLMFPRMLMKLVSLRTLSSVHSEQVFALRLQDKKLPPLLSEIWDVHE", "UniProt P37231": "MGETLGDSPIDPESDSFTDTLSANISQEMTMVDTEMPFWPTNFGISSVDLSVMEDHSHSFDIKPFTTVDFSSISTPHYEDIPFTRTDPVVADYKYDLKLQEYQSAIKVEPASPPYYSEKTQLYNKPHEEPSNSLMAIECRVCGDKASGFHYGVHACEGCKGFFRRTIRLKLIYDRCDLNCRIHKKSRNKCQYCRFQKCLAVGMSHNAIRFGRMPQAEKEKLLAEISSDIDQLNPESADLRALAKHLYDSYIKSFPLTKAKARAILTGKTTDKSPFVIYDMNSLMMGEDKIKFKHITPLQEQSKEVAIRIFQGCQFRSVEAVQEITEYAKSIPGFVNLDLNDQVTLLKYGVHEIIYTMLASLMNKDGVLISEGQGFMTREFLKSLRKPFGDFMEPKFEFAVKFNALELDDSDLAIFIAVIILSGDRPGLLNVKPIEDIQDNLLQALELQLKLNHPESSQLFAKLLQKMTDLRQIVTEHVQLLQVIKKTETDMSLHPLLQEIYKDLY", "UniProt P10276, whole entry": "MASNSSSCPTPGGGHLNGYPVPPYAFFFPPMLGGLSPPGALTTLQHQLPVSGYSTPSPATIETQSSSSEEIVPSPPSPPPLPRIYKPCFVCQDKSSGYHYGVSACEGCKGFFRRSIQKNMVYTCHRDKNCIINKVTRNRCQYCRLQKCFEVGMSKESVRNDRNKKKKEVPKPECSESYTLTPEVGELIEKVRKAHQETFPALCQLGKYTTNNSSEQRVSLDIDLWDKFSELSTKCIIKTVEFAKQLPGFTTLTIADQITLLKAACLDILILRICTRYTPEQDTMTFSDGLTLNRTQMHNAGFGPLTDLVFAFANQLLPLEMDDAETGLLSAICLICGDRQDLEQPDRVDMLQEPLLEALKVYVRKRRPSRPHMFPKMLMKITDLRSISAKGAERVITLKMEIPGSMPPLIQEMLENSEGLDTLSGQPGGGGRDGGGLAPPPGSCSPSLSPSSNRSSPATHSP"},
  "source": "ChEMBL document CHEMBL4680376",
  "about": "“Discovery of Orally Active and Nonsteroidal Farnesoid X Receptor (FXR) Antagonist with Propensity for Accumulation and Responsiveness in Ileum” (ACS Med Chem Lett, 2021)",
  "key": {"[1]": {"target": "T1, Peroxisome proliferator-activated receptor delta (Homo sapiens) (UniProt Q03181)", "T1 sequence (whole entry)": "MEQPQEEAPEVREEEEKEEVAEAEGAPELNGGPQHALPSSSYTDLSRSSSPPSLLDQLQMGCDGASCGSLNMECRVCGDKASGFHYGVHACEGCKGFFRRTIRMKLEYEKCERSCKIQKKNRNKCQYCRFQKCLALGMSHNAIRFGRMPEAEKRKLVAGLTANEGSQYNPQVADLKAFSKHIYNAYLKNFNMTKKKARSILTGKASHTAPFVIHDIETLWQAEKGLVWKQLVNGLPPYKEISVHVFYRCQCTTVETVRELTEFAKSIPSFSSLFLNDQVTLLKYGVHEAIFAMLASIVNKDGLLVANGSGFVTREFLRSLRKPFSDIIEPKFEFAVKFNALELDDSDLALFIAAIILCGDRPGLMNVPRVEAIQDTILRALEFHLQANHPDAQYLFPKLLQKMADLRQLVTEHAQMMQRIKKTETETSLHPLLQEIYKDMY", "test": "Antagonist activity against human PPARdelta assessed as inhibition of GW501516-induced luciferase expression at 1 uM incubated for 24 hrs by luciferase reporter gene assay"}, "[2]": {"target": "Oxysterols receptor LXR-beta (Homo sapiens) (UniProt P55055)", "test": "Antagonist activity against human LXRbeta assessed as inhibition of TO901317-induced luciferase expression at 1 uM incubated for 24 hrs by luciferase reporter gene assay"}, "[3]": {"target": "Oxysterols receptor LXR-alpha (Homo sapiens) (UniProt Q13133)", "test": "Antagonist activity against human LXRalpha assessed as inhibition of TO901317-induced luciferase expression at 1 uM incubated for 24 hrs by luciferase reporter gene assay"}, "[4]": {"target": "T2, Bile acid receptor (Mus musculus) (UniProt Q60641)", "T2 sequence (whole entry)": "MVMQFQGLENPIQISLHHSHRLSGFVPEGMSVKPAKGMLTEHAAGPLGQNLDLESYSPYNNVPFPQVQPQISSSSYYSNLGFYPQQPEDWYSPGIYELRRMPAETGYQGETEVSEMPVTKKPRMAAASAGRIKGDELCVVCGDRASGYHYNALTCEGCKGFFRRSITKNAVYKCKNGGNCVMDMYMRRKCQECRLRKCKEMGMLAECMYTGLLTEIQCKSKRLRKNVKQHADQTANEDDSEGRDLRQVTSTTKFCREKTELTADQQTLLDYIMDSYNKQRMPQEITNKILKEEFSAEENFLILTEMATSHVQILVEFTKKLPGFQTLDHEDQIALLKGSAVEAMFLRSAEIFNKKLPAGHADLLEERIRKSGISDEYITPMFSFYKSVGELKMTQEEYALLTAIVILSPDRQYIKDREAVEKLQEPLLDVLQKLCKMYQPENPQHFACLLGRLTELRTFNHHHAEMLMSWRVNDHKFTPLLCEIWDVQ", "test": "In vivo antagonist activity at FXR in C57BL/6N mouse ileum assessed as downregulation of Fgf15 mRNA expression at 10 to 30 mg/kg, po administered once daily for 7 days and measured after 25 hrs of last dose by qRT-PCR analysis", "type": "functional, organism-based", "settings": "dose 10-30 mg/kg, time 7.0 day"}, "[5]": {"target": "T3, Retinoic acid receptor RXR-alpha (Homo sapiens) (UniProt P19793)", "T3 sequence (whole entry)": "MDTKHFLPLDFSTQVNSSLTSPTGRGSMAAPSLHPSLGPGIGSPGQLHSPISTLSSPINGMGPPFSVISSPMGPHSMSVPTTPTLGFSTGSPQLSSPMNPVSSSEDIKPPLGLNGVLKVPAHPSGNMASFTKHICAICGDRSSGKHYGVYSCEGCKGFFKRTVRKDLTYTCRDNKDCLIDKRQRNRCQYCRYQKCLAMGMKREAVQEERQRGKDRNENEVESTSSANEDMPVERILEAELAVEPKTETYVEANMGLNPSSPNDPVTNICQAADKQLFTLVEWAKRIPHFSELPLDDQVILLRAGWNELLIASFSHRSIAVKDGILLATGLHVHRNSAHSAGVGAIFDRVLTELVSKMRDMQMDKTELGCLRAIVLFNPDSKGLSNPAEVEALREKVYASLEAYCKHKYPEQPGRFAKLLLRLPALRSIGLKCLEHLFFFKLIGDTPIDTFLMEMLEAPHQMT", "test": "Antagonist activity against human RXR alpha assessed as inhibition of 9-cis-RA-induced luciferase expression at 1 uM incubated for 24 hrs by luciferase reporter gene assay"}, "[6]": {"target": "T2, Bile acid receptor (Mus musculus)", "test": "In vivo antagonist activity at FXR in C57BL/6N mouse ileum assessed as upregulation of Asbt mRNA expression at 10 to 30 mg/kg, po administered once daily for 7 days and measured after 25 hrs of last dose by qRT-PCR analysis", "type": "functional, organism-based", "settings": "dose 10-30 mg/kg, time 7.0 day"}, "[7]": {"target": "T2, Bile acid receptor (Mus musculus)", "test": "In vivo antagonist activity at FXR in C57BL/6N mouse liver assessed as downregulation of Shp mRNA expression at 10 to 30 mg/kg, po administered once daily for 7 days and measured after 25 hrs of last dose by qRT-PCR analysis", "type": "functional, organism-based", "settings": "dose 10-30 mg/kg, time 7.0 day"}, "[8]": {"target": "T4, G-protein coupled bile acid receptor 1 (Homo sapiens) (UniProt Q8TDU6)", "T4 sequence (whole entry)": "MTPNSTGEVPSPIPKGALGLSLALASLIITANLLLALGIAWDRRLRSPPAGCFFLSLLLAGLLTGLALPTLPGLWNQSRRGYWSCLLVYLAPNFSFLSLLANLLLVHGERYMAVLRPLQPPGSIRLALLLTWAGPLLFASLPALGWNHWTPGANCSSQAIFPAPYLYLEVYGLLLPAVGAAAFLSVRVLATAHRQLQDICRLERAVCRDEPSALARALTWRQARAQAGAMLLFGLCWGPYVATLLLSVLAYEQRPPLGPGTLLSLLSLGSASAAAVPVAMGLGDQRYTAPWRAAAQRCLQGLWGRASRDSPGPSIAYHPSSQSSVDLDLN", "test": "Antagonist activity against human TGR5 at 1 uM incubated for 24 hrs by luciferase reporter gene assay"}, "[9]": {"target": "T2, Bile acid receptor (Mus musculus)", "test": "In vivo antagonist activity at FXR in C57BL/6N mouse liver assessed as downregulation of Bsep mRNA expression at 10 to 30 mg/kg, po administered once daily for 7 days and measured after 25 hrs of last dose by qRT-PCR analysis", "type": "functional, organism-based", "settings": "dose 10-30 mg/kg, time 7.0 day"}, "[10]": {"target": "T5, Vitamin D3 receptor (Homo sapiens) (UniProt P11473)", "T5 sequence (whole entry)": "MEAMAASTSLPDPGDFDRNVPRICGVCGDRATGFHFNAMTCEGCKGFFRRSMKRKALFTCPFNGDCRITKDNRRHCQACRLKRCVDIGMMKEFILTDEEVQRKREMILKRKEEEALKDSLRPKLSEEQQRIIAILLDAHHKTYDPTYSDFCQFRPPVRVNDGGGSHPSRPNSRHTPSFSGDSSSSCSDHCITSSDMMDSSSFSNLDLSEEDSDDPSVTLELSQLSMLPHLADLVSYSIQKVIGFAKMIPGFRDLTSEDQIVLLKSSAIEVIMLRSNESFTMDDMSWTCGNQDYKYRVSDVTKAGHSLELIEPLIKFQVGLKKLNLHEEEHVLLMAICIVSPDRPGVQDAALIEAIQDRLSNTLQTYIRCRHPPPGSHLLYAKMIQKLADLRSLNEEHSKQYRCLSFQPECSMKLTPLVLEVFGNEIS", "test": "Antagonist activity against human VDR assessed as inhibition of 1,25-OH-VD3-induced luciferase expression at 1 uM incubated for 24 hrs by luciferase reporter gene assay"}, "[11]": {"target": "T6, Peroxisome proliferator-activated receptor alpha (Homo sapiens) (UniProt Q07869)", "T6 sequence (whole entry)": "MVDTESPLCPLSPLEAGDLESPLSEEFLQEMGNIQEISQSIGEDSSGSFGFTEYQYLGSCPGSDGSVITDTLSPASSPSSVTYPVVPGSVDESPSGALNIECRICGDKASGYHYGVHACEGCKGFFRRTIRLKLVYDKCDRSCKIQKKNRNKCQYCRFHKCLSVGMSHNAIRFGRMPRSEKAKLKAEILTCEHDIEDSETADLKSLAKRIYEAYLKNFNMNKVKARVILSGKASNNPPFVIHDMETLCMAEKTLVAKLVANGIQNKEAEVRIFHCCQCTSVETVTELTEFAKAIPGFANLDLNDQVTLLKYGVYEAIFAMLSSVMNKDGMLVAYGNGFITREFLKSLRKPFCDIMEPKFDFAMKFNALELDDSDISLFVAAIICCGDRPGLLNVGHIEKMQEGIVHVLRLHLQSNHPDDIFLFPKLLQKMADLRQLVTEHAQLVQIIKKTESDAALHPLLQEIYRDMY", "test": "Antagonist activity against human PPARalpha assessed as inhibition of GW7647-induced luciferase expression at 1 uM incubated for 24 hrs by luciferase reporter gene assay"}, "[12]": {"target": "T6, Peroxisome proliferator-activated receptor alpha (Homo sapiens)", "test": "Antagonist activity against human PPARalpha at 1 uM incubated for 24 hrs by luciferase reporter gene assay"}, "[13]": {"target": "Peroxisome proliferator-activated receptor gamma (Homo sapiens) (UniProt P37231)", "test": "Antagonist activity against human PPARgamma assessed as inhibition of GW1929-induced luciferase expression at 1 uM incubated for 24 hrs by luciferase reporter gene assay"}, "[14]": {"target": "T5, Vitamin D3 receptor (Homo sapiens)", "test": "Antagonist activity against human VDR at 1 uM incubated for 24 hrs by luciferase reporter gene assay"}, "[15]": {"target": "Retinoic acid receptor alpha (Homo sapiens) (UniProt P10276)", "test": "Antagonist activity against human RARalpha assessed as inhibition of 9-cis-RA-induced luciferase expression at 1 uM incubated for 24 hrs by luciferase reporter gene assay"}, "[16]": {"target": "Retinoic acid receptor alpha (Homo sapiens) (UniProt P10276)", "test": "Antagonist activity against human RARalpha at 1 uM incubated for 24 hrs by luciferase reporter gene assay"}, "[17]": {"target": "T4, G-protein coupled bile acid receptor 1 (Homo sapiens)", "test": "Antagonist activity against human TGR5 assessed as inhibition of LCA-induced luciferase expression at 1 uM incubated for 24 hrs by luciferase reporter gene assay"}, "[18]": {"target": "Oxysterols receptor LXR-beta (Homo sapiens) (UniProt P55055)", "test": "Antagonist activity against human LXRbeta at 1 uM incubated for 24 hrs by luciferase reporter gene assay"}, "[19]": {"target": "T2, Bile acid receptor (Mus musculus)", "test": "In vivo antagonist activity at FXR in C57BL/6N mouse ileum assessed as downregulation of Shp mRNA expression at 10 to 30 mg/kg, po administered once daily for 7 days and measured after 25 hrs of last dose by qRT-PCR analysis", "type": "functional, organism-based", "settings": "dose 10-30 mg/kg, time 7.0 day"}, "[20]": {"target": "T1, Peroxisome proliferator-activated receptor delta (Homo sapiens)", "test": "Antagonist activity against human PPARdelta at 1 uM incubated for 24 hrs by luciferase reporter gene assay"}, "[21]": {"target": "Oxysterols receptor LXR-alpha (Homo sapiens) (UniProt Q13133)", "test": "Antagonist activity against human LXRalpha at 1 uM incubated for 24 hrs by luciferase reporter gene assay"}, "[22]": {"target": "T2, Bile acid receptor (Mus musculus)", "test": "In vivo antagonist activity at FXR in C57BL/6N mouse liver assessed as downregulation of Cyp7a1 mRNA expression at 10 to 30 mg/kg, po administered once daily for 7 days and measured after 25 hrs of last dose by qRT-PCR analysis", "type": "functional, organism-based", "settings": "dose 10-30 mg/kg, time 7.0 day"}, "[23]": {"target": "Peroxisome proliferator-activated receptor gamma (Homo sapiens) (UniProt P37231)", "test": "Antagonist activity against human PPARgamma at 1 uM incubated for 24 hrs by luciferase reporter gene assay"}, "[24]": {"target": "T3, Retinoic acid receptor RXR-alpha (Homo sapiens)", "test": "Antagonist activity against human RXR alpha at 1 uM incubated for 24 hrs by luciferase reporter gene assay"}},
  "note": "The source made the active and inactive calls. No cut-off for these calls is given here.",
  "data": [
    {"smiles": "CC(C)C(=O)N1CCC(C[C@@H](c2nc3ccc(F)cc3n2C2CC2)N2C(=O)CN(c3ccc(Oc4ccc(F)cc4)cc3)C2=O)CC1", "values": [
      {"measurement": "Activity", "setting": "[1]", "value": "inactive"},
      {"measurement": "Activity", "setting": "[2]", "value": "inactive"},
      {"measurement": "Activity", "setting": "[3]", "value": "inactive"},
      {"measurement": "Activity", "setting": "[4]", "value": "Active"},
      {"measurement": "Activity", "setting": "[5]", "value": "inactive"},
      {"measurement": "Activity", "setting": "[6]", "value": "Active"},
      {"measurement": "Activity", "setting": "[7]", "value": "inactive"},
      {"measurement": "Activity", "setting": "[8]", "value": "inactive"},
      {"measurement": "Activity", "setting": "[9]", "value": "inactive"},
      {"measurement": "Activity", "setting": "[10]", "value": "inactive"},
      {"measurement": "Activity", "setting": "[11]", "value": "inactive"},
      {"measurement": "Activity", "setting": "[12]", "value": "inactive"},
      {"measurement": "Activity", "setting": "[13]", "value": "inactive"},
      {"measurement": "Activity", "setting": "[14]", "value": "inactive"},
      {"measurement": "Activity", "setting": "[15]", "value": "inactive"},
      {"measurement": "Activity", "setting": "[16]", "value": "inactive"},
      {"measurement": "Activity", "setting": "[17]", "value": "inactive"},
      {"measurement": "Activity", "setting": "[18]", "value": "inactive"},
      {"measurement": "Activity", "setting": "[19]", "value": "Active"},
      {"measurement": "Activity", "setting": "[20]", "value": "inactive"},
      {"measurement": "Activity", "setting": "[21]", "value": "inactive"},
      {"measurement": "Activity", "setting": "[22]", "value": "inactive"},
      {"measurement": "Activity", "setting": "[23]", "value": "inactive"},
      {"measurement": "Activity", "setting": "[24]", "value": "inactive"}
    ]}
  ]
}
